Yeast mating assay 1: variants of the scFv Ab-14

Antigen: PDVDLGDISGINAS, a 14-residue peptide of the SARS-CoV-2 spike HR2 region.

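The parent was found by panning a naive human phage display library on the peptide. Library AAYL50 holds single substitutions and randomly drawn double and triple substitutions in the CDRs. In AlphaSeq, yeast of one mating type display the scFv and yeast of the other type display the target. Binding brings cells together so that they mate, and sequencing counts the barcode pairs among the diploids. Scores were corrected for input abundance and mapped to Kd with protein pairs of known affinity run in the same pool. Mating was done three times.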

The variants keep the heavy chain, the linker and the frameworks of Ab-14 (scFv order VH, a 15-residue (Gly4Ser)3 linker, VL).
VH: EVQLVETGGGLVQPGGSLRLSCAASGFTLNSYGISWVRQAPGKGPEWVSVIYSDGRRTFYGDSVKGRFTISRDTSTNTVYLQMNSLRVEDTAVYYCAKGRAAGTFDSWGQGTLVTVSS
VL: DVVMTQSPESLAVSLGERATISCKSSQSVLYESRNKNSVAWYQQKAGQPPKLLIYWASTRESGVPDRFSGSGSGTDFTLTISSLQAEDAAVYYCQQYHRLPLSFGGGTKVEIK

Variants are written as CDR1, CDR2 and CDR3 of the light chain (limits as in the source). Parent: KSSQSVLYESRNKNSVA, WASTRES, QQYHRLPLS. All variants listed here change S58 of the VL, counted from its first residue. Values are log10 of the apparent Kd in nM; lower means stronger binding. Replicates are averaged; those with no signal do not enter the mean. A pair that was not seen in any replicate is written "no signal"; this usually means weak binding, but a binder can also be missed. Three control strains display no target. For library AAYL50, 18% of the pairings with them gave a signal, with a median of 4.19 and one signal in twenty below 2.99, so weak values seen in few replicates may be background. In this assay the parent's reference entry averaged 0.65; its copy inside this library read 1.68.

For KSSQSVLYESRNKNSVA | WARDPES | QQYHRLPLS, the assay gave 4.01 (1 of 3 replicates). For KSSQSVLYESRLKNSVL | WALTRES | QQYHRLPLS, the assay gave no signal (0 of 3 replicates). Variant KSSQSVLYESRNKNSVA | WAETREA | QQYHRLPRS gave no signal (0 of 3 replicates). For KSSQSVLYESRNKNSVA | IADTRES | VQYHRLPLS, the assay gave no signal (0 of 3 replicates). For KSSQSVWYESRNKNWVA | WAITRES | QQYHRLPLS, the assay gave 5.48 (2 of 3 replicates). Variant KSSQSVLYSSRNKNSVA | WAVTRES | QQYHRLPNS showed no signal (0 of 3 replicates).

Variant KSSQSVLYESLNCNSVA | WATTRES | QQYHRLPLS gave 2.64 (3 of 3 replicates). Variant KSSQSVLYESRNKNSVA | LAFTREL | QQYHRLPLS gave 2.98 (1 of 3 replicates). For KSSQKVLYESRNKNSVA | WAATRES | QQYYRLPLS, the assay gave 4.66 (1 of 3 replicates). Variant KSSQSVLYQSRNKNSVA | WAATRES | QQLHRLPLS showed 1.04 (3 of 3 replicates). Variant KDSQSVLYESRNKNSVA | WAPTRES | QQLHRLPLS gave 4.63 (2 of 3 replicates). With KQSQSVLYESRNKNSVA | WAETRES | NQYHRLPLS the result was 1.93 (3 of 3 replicates).

For KSSQSVLYESRNKNSVT | WAITRES | QQYHRLPLG, the assay gave 4.84 (3 of 3 replicates). Variant VSSQSVLYESRNSNSVA | WAKTRES | QQYHRLPLS gave 1.70 (3 of 3 replicates). Variant KSSQSVEYESRNKNSVA | WLGTRES | QQYHRLPLS showed 4.61 (1 of 3 replicates). With ISSQSVLYESINKNSVA | WAGTRES | QQYHRLPLS the result was 1.60 (3 of 3 replicates). With KSSQSVAYESRNKNSVA | WACTRES | QQYHRLPKS the result was no signal (0 of 3 replicates). With KSSQSVLYNSRNKNSVA | WAFCRES | QQYHRLPLS the result was 3.80 (2 of 3 replicates).

With KSSQSLLYESRNKNSVA | WAGTRES | QQYHRLPLS the result was 1.56 (3 of 3 replicates). Variant KSSQSVLYESRPKNSVA | WAQTRES | DQYHRLPLS showed 4.44 (1 of 3 replicates). Variant KSSQSVRYESRQKNSVA | WADTRES | QQYHRLPLS gave 1.37 (3 of 3 replicates). With KSSQSGLYESRNSNSVA | WALTRES | QQYHRLPLS the result was 3.13 (3 of 3 replicates). For KSSQSVLYESRNINSVA | WADTRES | QQYHCLPLS, the assay gave 2.73 (3 of 3 replicates). Variant KSSQSVLCESRNKNSVA | WAFKRES | QQYHRLPLS showed 5.01 (1 of 3 replicates).

With KSSQSVLYESRNKNSVA | WATTRHS | QQYHRLPLS the result was 1.35 (3 of 3 replicates). For KSSQSVPYESRNKNSVA | WAQTRES | QQYGRLPLS, the assay gave 1.33 (3 of 3 replicates). With KSSQSVLYESRNKASVA | WAPTWES | QQYHRLPLS the result was 4.51 (2 of 3 replicates). For KSSQSVLYESRNFNSVA | WAWTRES | QQYHKLPLS, the assay gave 2.69 (3 of 3 replicates). Variant VSSQSVLYESRNKNSSA | WAFTRES | QQYHRLPLS gave no signal (0 of 3 replicates). Variant KSSQSVLYESRNKNSVK | WADTRES | QQIHRLPLS showed no signal (0 of 3 replicates).

With KSSQSVLYESRNKNSVA | WAATREE | QQYHRLPLM the result was 1.10 (3 of 3 replicates). Variant KSSQSVLYTSRMKNSVA | WAVTRES | QQYHRLPLS gave 3.54 (3 of 3 replicates). Variant KSSQSVLYESRNKHSVA | WAPTRES | KQYHRLPLS showed 4.69 (2 of 3 replicates). Variant KSSQSVLYESRNMNSVA | WAATREL | QQYHRLPLS showed 2.43 (3 of 3 replicates).

Source: Engelhart et al. 2022 (doi:10.1038/s41597-022-01779-4), MIT Lincoln Laboratory and A-Alpha Bio; data file from the FLAb repository.